This is an account of results in patent publication US9115117B2, “Substituted piperidine compounds and their use as orexin receptor modulators” (JANSSEN PHARMACEUTICA NV, priority 2013, dated 2015).

Sequences of proteins named here, by UniProt entry; tags and fusion partners are left off.
UniProt O43614, whole entry: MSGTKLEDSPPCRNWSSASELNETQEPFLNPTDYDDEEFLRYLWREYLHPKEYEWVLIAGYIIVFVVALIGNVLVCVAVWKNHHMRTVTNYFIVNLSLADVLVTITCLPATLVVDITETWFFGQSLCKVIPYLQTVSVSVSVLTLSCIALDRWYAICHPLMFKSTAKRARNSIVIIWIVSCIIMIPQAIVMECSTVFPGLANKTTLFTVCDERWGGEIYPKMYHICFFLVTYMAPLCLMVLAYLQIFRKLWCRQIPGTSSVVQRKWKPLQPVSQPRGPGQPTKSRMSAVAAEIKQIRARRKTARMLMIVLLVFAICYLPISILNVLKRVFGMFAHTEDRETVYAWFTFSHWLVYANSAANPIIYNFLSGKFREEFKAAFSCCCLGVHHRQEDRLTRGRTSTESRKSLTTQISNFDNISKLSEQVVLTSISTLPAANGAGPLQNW

In experiment [1] the target is rat orexin 1 receptor (Rattus norvegicus, UniProt P56718). Nature of the experiment: Rat orexin 1 receptor radioligand binding. The settings on record: HEK293 cells stably expressing rat orexin 1 receptor; apparent Ki; read-out: rOX1 Ki. The protocol: After centrifugation (2K×G, 5 min at 4° C.), the supernatant was aspirated and the pellets frozen and stored at −80° C. […] Each cell pellet from a 15 cm plate was resuspended in 10 mL, stored on ice, and homogenized for 45 sec prior to addition to the reactions. Competition binding experiments in 96 well polypropylene plates were performed using [^3H]-(1-(5-(2-fluoro-phenyl)-2-methyl-thiazol-4-yl)-1-((S)-2-(5-phenyl-(1,3,4)oxadiazol-2-ylmethyl)-pyrrolidin-1-yl)-methanone) (Moraveck Corporation, specific activity=35.3 Ci/mmol), diluted to a 10 nM concentration in PBS (4 nM final). […] The final concentration of DMSO in the reactions is equal to or less than 0.1%. Total and nonspecific binding was determined in the absence and presence of 10 μM almorexant. The total volume of each reaction is 200 μL (20 μL of diluted compounds, 80 μL of [3H]-(1-(5-(2-fluoro-phenyl)-2-methyl-thiazol-4-yl)-1-((S)-2-(5-phenyl-(1,3,4)oxadiazol-2-ylmethyl)-pyrrolidin-1-yl)-methanone) diluted in PBS and 100 μL of the cell suspension). […] The plates were washed 3 times by aspirating 30 ml PBS through the plates. Plates were dried in 55° C. oven for 60 min, scintillation fluid was added, and the radioactivity was counted on a Topcount (Packard).

For experiment [2], the target named is human orexin 2 receptor (Homo sapiens (Human), UniProt O43614). Nature of the experiment: Human orexin 2 receptor radioligand binding ([3H]-EMPA). The following applies: HEK293 stably expressing human orexin 2 receptor, apparent Ki, read-out: hOX2 Ki. The protocol:
After centrifugation (2K×G, 5 min at 4° C.), the supernatant was aspirated and the pellets frozen and stored at −80° C. […] Each cell pellet from a 15 cm plate was resuspended in 10 mL, stored on ice, and homogenized for 45 sec just prior to addition to the reactions. Competition binding experiments in 96 well polypropylene plates were performed using [^3H]-EMPA (Moraveck Corporation, specific activity=29.6 Ci/mmol), diluted to a 5 nM concentration in PBS (2 nM final concentration). […] The final concentration of DMSO in the reactions is equal to or less than 0.1%. Total and nonspecific binding was determined in the absence and presence of […]. The total volume of each reaction is 200 μL (20 μL of diluted compounds, 80 μL of [^3H]-EMPA diluted in PBS and 100 μL of the cell suspension).
The plates were washed 3 times by aspirating 30 ml PBS through the plates. Plates were dried in 55° C. oven for 60 min, scintillation fluid was added, and the radioactivity was counted on a Topcount (Packard).

The target of experiment [3] is human orexin 1 receptor (Homo sapiens, UniProt O43613). The experiment is described as follows: Human orexin 1 receptor radioligand binding. The settings on record: CHO cells stably expressing human orexin 1 receptor; apparent Ki; read-out: hOX1 Ki. The protocol:
The in vitro affinity of the compounds of the invention for the rat/human orexin 1 and human orexin 2 receptors was determined by competitive radioligand binding using [^3H](1-(5-(2-fluoro-phenyl)-2-methyl-thiazol-4-yl)-1-((S)-2-(5-phenyl-(1,3,4)oxadiazol-2-ylmethyl)-pyrrolidin-1-yl)-methanone)(Langmead et al., 2004) and [^3H]EMPA (n-ethyl-2[96-methoxy-pyridin-3-yl)-(toluene-2-sulfonyl)-amino]-N-pyridin-3-ylmethyl acetamide), respectively (Langmead et al., 2004, British Journal of Pharmacology 141:340-346; Malherbe et al., 2004, British Journal of Pharmacology 156:1326-41).
Human Embryonic Kidney 293 cells (HEK293) stably expressing rat orexin 1 receptor (Genebank accession number NM_001525) or Chinese ovary cells (CHO) stably expressing human orexin 1 receptor (Genebank accession number NM_001526) were grown to confluency in DMEM (Hyclone, cat #SH30022), 10% FBS, 1× Pen/Strep, 1× sodium pyruvate, 10 mM HEPES, 600 µg/mL G418 and DMEM/F12 (Gibco, Cat #11039), 10% FBS, 1× Pen/Strep, 600 µg/mL G418 media, respectively on 150 cm^2 tissue culture plates, washed with 5 mM EDTA in PBS (HyClone Dulbecco's Phoshpate Buffered Saline 1× with Calcium and Magnesium, Cat #SH30264.01, hereafter referred to simply as PBS) and scraped into 50 ml tubes. After centrifugation (2K×G, 5 min at 4° C.), the supernatant was aspirated and the pellets frozen and stored at −80° C. Cells were resuspended in PBS in the presence of 1 tablet of protease inhibitor cocktail (Roche, Cat. #11836145001) per 50 mL. Each cell pellet from a 15 cm plate was resuspended in 10 mL, stored on ice, and homogenized for 45 sec prior to addition to the reactions. Competition binding experiments in 96 well polypropylene plates were performed using [^3H]-(1-(5-(2-fluoro-phenyl)-2-methyl-thiazol-4-yl)-1-((S)-2-(5-phenyl-(1,3,4)oxadiazol-2-ylmethyl)-pyrrolidin-1-yl)-methanone) (Moraveck Corporation, specific activity=35.3 Ci/mmol), diluted to a 10 nM concentration in PBS (4 nM final). Compounds were solubilized in 100% DMSO (Acros Organics, Cat. #61042-1000) and tested over a range of 7 concentrations (from 0.1 nM to 10 μM). The final concentration of DMSO in the reactions is equal to or less than 0.1%. Total and nonspecific binding was determined in the absence and presence of 10 μM almorexant. The total volume of each reaction is 200 μL (20 μL of diluted compounds, 80 μL of [3H]-(1-(5-(2-fluoro-phenyl)-2-methyl-thiazol-4-yl)-1-((S)-2-(5-phenyl-(1,3,4)oxadiazol-2-ylmethyl)-pyrrolidin-1-yl)-methanone) diluted in PBS and 100 μL of the cell suspension). Reactions were run for 60 min at room temperature and terminated by filtration through GF/C filter plates (PerkinElmer, Cat. #6005174) presoaked in 0.3% polyethylenimine using the cell harvester (PerkinElmer Filtermate). The plates were washed 3 times by aspirating 30 ml PBS through the plates. Plates were dried in 55° C. oven for 60 min, scintillation fluid was added, and the radioactivity was counted on a Topcount (Packard).

Turning to `C[C@H]1[C@H](Nc2ncc(C(F)(F)F)cn2)CCCN1C(=O)c1ccccc1-n1nccn1` (racemic) [Example 35, (±)-trans-(2-(2H-1,2,3-triazol-2-yl)phenyl)(2-methyl-3-((5-(trifluoromethyl)pyrimidin-2-yl)amino)piperidin-1-yl)methanone], the Ki in experiment [1] is 20 nM; in experiment [2] it was 738 nM.
Taken in the same sequence, the figures for `CCOc1ccccc1C(=O)N1CCC[C@@H](Nc2cnc3ccccc3n2)[C@H]1C` (racemic) [Example 65, (±)-cis-(2-ethoxyphenyl)(2-methyl-3-(quinoxalin-2-ylamino)piperidin-1-yl)methanone] were 314 nM and 295 nM.
For the compound `C[C@H]1[C@H](Nc2nc3ccccc3o2)CCCN1C(=O)c1ccccc1-n1nccn1` (racemic) [Example 41, (±)-trans-(2-(2H-1,2,3-triazol-2-yl)phenyl)(3-(benzo[d]oxazol-2-ylamino)-2-methylpiperidin-1-ylmethanone], the Ki in experiment [3] stood at 9 nM; in experiment [1], 9 nM; in experiment [2], 284 nM.
For the compound `CCOc1ccccc1C(=O)N1CCC[C@@H](Nc2cnc3ccccc3n2)[C@@H]1C` (racemic) [Example 49, (±)-trans-(2-ethoxyphenyl)(2-methyl-3-(quinoxalin-2-ylamino)piperidin-1-yl)methanone], the Ki was determined as 70 nM in experiment [3], 95 nM in experiment [1] and 89 nM in experiment [2].
Consider `Cc1ccc(C(=O)N2CCC[C@@H](Nc3nccc(C(F)(F)F)n3)[C@@H]2C)c(-n2ccnn2)n1` (racemic) [Example 11, (±)-trans-(6-methyl-2-(1H-1,2,3-triazol-1-yl)pyridin-3-yl)(2-methyl-3-((4-(trifluoromethyl)pyrimidin-2-yl)amino)piperidin-1-yl)methanone], for which, in experiment [2], the Ki is 634 nM.
Consider `C[C@H]1[C@H](Nc2ccc(C(F)(F)F)cn2)CCCN1C(=O)c1ccccc1-n1nccn1` (racemic) [Example 12, (±)-trans-(2-(2H-1,2,3-triazol-2-yl)phenyl)(2-methyl-3-((5-(trifluoromethyl)pyridin-2-yl)amino)piperidin-1-yl)methanone], for which the Ki worked out at 11 nM in experiment [3], 14 nM in experiment [1] and 332 nM in experiment [2].
Taken in the same sequence, the figures for `C[C@@H]1[C@H](Nc2ccc(C(F)(F)F)cn2)CCCN1C(=O)c1ccccc1-n1nccn1` (racemic) [Example 56, (±)-cis-(2-(2H-1,2,3-triazol-2-yl)phenyl)(2-methyl-3-((5-(trifluoromethyl)pyridin-2-yl)amino)piperidin-1-yl)methanone] were 112 nM, 128 nM and 3600 nM.
